Experimental data reported in patent US10946383B2, “Oligonucleotide encoded chemical libraries” (Plexium, Inc., priority 2017, dated 2021).

By UniProt entry, the sequences of proteins in these tests, tags left out. Residues count along the entry.
UniProt P07339, 65-412: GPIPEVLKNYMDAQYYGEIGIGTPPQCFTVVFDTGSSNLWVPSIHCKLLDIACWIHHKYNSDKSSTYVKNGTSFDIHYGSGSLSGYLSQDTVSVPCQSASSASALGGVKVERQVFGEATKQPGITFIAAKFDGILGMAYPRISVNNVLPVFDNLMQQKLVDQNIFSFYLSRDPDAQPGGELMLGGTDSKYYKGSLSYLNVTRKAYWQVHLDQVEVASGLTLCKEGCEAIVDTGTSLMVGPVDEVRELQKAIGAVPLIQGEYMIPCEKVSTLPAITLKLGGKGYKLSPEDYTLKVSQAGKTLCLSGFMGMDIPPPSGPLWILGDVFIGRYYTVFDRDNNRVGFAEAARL

Biological target: Cathepsin-D protease (Homo sapiens, UniProt P07339)
Test: Cathepsin-D protease inhibition assay in picowells with bead-released compound and Peptide Q-Fluor substrate
Assay type: biochemical
Conditions: compound released from 10 μm TentaGel beads by UV (365 nm, 77 J/cm^2) to approximately 13 μM; 30 min, 37° C.

CC(C)CC(=O)N[C@H](C(=O)N[C@H](C(=O)N[C@@H](CC(C)C)[C@@H](O)CC(=O)N[C@@H](C)C(=O)N[C@@H](CC(C)C)[C@@H](O)CC(=O)O)C(C)C)C(C)C [positive control beads, Pepstatin-A]
Cathepsin-D inhibition (fluorescence of cleaved Peptide Q-Fluor substrate): strong inhibition
